Reference: paper PMC7808749, “Morpholine-based chalcones as dual-acting monoamine oxidase-B and acetylcholinesterase inhibitors: synthesis and biochemical investigations” (Journal of Enzyme Inhibition and Medicinal Chemistry, 2021)

Sequences of proteins named here, by UniProt entry; tags and fusion partners are left off.
UniProt P27338, whole entry: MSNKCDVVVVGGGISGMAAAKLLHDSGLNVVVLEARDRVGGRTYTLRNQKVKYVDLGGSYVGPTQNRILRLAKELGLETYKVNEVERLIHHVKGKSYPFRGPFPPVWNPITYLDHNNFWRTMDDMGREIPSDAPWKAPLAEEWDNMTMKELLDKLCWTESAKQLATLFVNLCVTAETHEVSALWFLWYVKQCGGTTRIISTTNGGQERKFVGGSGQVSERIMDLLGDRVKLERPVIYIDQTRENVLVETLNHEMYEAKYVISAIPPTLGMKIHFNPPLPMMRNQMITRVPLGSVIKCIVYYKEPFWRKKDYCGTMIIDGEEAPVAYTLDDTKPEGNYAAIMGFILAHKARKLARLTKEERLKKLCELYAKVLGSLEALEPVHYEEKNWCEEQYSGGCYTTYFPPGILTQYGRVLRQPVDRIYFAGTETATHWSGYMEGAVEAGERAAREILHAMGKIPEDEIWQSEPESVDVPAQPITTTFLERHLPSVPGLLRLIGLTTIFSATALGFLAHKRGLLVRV

Target: MAO-B (Homo sapiens, UniProt P27338)
Experiment: MAO-B inhibition assay (benzylamine substrate)
Format: biochemical
Settings: selectivity for MAO-B over MAO-A

O=C(/C=C/c1ccccc1)c1ccc(N2CCOCC2)cc1 [MO1]
SI = IC50 of MAO-A/IC50 of MAO-B: > 1333.3
